Here are results for 19 compounds from patent US20250326765A1, “PDE4B INHIBITOR AND USE THEREOF” (XIZANG HAISCO PHARMACEUTICAL CO., LTD., priority 2022, published 2025).

Sequences of proteins named here, by UniProt entry; tags and fusion partners are left off. Residues count along the entry.
UniProt Q07343, 1-564 isoform 2: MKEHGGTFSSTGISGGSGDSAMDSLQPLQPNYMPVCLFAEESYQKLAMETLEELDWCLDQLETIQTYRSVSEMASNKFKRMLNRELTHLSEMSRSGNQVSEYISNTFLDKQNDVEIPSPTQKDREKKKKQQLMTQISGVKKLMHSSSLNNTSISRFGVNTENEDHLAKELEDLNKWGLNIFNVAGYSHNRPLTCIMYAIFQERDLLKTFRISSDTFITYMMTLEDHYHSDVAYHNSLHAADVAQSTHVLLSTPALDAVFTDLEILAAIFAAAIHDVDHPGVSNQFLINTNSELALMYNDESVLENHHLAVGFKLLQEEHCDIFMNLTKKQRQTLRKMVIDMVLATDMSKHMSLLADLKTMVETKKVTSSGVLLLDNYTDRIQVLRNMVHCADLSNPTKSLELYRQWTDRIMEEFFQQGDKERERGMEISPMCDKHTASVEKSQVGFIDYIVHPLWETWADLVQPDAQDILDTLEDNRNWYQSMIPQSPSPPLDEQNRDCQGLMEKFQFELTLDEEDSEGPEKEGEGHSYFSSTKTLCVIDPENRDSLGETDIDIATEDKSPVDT
UniProt Q08499, 303-809 limits assumed: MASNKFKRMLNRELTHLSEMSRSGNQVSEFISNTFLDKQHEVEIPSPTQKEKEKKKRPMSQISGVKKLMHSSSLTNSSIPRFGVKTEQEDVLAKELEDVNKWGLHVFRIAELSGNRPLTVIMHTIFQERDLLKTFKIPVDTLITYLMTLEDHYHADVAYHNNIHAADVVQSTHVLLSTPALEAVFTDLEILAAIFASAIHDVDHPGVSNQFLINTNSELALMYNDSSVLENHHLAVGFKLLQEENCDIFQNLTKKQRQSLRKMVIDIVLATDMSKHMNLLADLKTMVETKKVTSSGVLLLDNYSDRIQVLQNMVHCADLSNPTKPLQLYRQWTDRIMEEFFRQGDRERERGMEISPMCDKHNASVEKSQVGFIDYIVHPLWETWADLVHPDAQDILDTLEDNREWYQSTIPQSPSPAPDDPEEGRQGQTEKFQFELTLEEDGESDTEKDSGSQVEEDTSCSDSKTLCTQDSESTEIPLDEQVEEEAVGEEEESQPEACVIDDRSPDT

Structures are written as SMILES. Where only a bound is given, the exact number is not on record here.

The term IC50 denotes the concentration that inhibits the measured activity by half.

The target in one test is PDE4B2 (Homo sapiens, UniProt Q07343). Description: Effect of compounds on PDE4B2 activity (fluorescence polarization kit). As to conditions: read-out: PDE4B2 IC50; class symbols. As for the experimental part: The effect of compounds on PDE4B2 activity was detected by a fluorescence polarization kit (BPS Bioscience, Catalog #60343). According to the instructions of the kit, FAM-Cyclic-3′,5′-AMP at a final concentration of […], 1 ng/well of PDE4B2 (PDE buffer was added to the negative control well), and a compound diluted in a gradient manner (PDE buffer containing 10% DMSO was added to the positive control well) were added to each well, fully mixed, and then reacted at room temperature for 1 h. The Binding Agent was diluted with the Binding Agent Diluent (cAMP) at a ratio of 1:100 for later use, the Binding Agent dilution was taken and added to the test plate at 50 μl/well and incubated at room temperature with slow shaking for 20 minutes. After the incubation was complete, Envision was used for FP detection, with Excitation at 480 nm and Emission at 535 nm. FP was usually represented by mP value.
[formula] • I∥ (S535): fluorescence intensity in parallel direction • I⊥ (P535): fluorescence intensity in perpendicular direction • G: G factor=1
(§1) [formula] • mP(sample): mP of the test compound in a reaction well • mP(negative control): mP in the negative control well • mP(positive control): mP in the positive control well
(§2) According to the calculated inhibition rate at each concentration, the IC50 value of each compound was calculated by GraphPad Prism 8 software.

A further test concerns the target PDE4D2 (Homo sapiens, UniProt Q08499). Put plainly: Effect of compounds on PDE4D2 activity (fluorescence polarization kit). The settings on record: read-out: PDE4D2 IC50; class symbols. The method, then: The effect of compounds on PDE4D2 activity was detected by a fluorescence polarization kit (BPS Bioscience, Catalog #60345). During the reaction, 12.5 μL of 0.272 ng/well of an enzyme (final concentration: 0.068 ng/well) and 12.5 μL of the compound diluted in a gradient manner (DMSO concentration: 4%) were first pre-incubated at room temperature for 15 minutes, the same volume of the enzyme at the same concentration and 12.5 μL of PDE buffer containing 4% DMSO were added to the positive control well, and 25 μL of PDE buffer containing 2% DMSO was added to the negative control well. After completion, 25 μL of […] FAM-Cyclic-3′,5′-AMP (final concentration: […]) was added to each well, fully mixed, and then incubated at room temperature with slow shaking for 30 minutes. The Binding Agent was diluted with the Binding Agent Diluent (cAMP) at a ratio of 1:100 for later use, 100 μl/well of the Binding Agent dilution was taken and added to all wells of the test plate and incubated at room temperature with slow shaking for 1 hour.
After the incubation was complete, BMG LRBTECH microplate reader was used for FP detection, with Excitation at 485 nm and Emission at 520 nm. FP was usually represented by mP value.
[formula] • I∥ (S520): fluorescence intensity in parallel direction • I⊥ (P520): fluorescence intensity in perpendicular direction • G: G factor=1
as §1, §2
In general terms: Fluorescence polarisation rises when a labelled molecule tumbles more slowly, as on binding a larger partner.

In test [1] the test system is release of tumor necrosis factor-α (TNF-α) from human peripheral blood mononuclear cells induced by lipopolysaccharide (LPS). Put plainly: Inhibition of LPS-induced TNF-α release from human peripheral blood mononuclear cells in vitro. As to conditions: hPBMC, 100 ng/mL LPS, 4 h; for IC50: read-out: Re IC50 (nM) (relative IC50), TNF-α induced by LPS, class symbols. As for the experimental part: Normal human peripheral blood which was anticoagulated (citric acid anticoagulation) was collected, and hPBMCs were prepared by Ficoll-Paque PLUS (Cytiva, Cat #17144002, density 1.077 g/mL). The concentration of hPBMC cells was adjusted to 0.25×10^6 cells/mL with RPMI1640 medium and inoculated into a 96-well plate in an amount of 50000 cells per well. Subsequently, different concentrations of drugs were added for pre-incubation for 1 h (the DMSO final concentration was 0.1%, and the positive and negative control wells had the same volume of RPMI1640 containing 0.1% DMSO). After the pre-incubation was complete, 100 ng/mL LPS (SIGMA, L2630) was added to the compound and positive control wells, and the negative control well had the same volume of RPMI1640 containing 0.1% DMSO. Incubation was carried out for 4 h in an incubator at 37° C. and 5% CO2. The cell supernatant was collected, and the content of TNF-α in the supernatant sample was detected by human TNF-α Elisa quantitative test kit (Sino Biological, Cat #KIT10602). The IC50 value was calculated using GraphPad Prism software.

Turning to `[O-][S@+]1CCc2nc(N3CCN4c5ccc(Cl)cc5OCC4C3)nc(NC3(CO)CCC3)c21` (single isomer, unassigned) [Compound 47-2], the IC50 on PDE4B2 and at PDE4D2 was under 10 nM throughout.
As to `C#Cc1ccc2c(c1)OCC1CN(c3nc4c(c(NC5(CO)CCC5)n3)[S@+]([O-])CC4)CCN21` (single isomer, unassigned) [Compound 48-2], the half-inhibitory concentration (IC50) at PDE4B2 was under 10 nM; at PDE4D2, 10 to 50 nM.
With `[O-][S@+]1CCc2nc(N3CC4CC3CC4c3ccc(Cl)cc3)nc(NC3(CO)CCC3)c21` (some centres unmarked), the IC50 on PDE4B2 and on PDE4D2 was 10 to 50 nM each time.
Take `[O-][S@+]1CCc2nc(N3C[C@H]4CC(c5ccc(Cl)cc5)C[C@H]4C3)nc(NC3(CO)CCC3)c21` (single isomer, unassigned): the half-inhibitory concentration (IC50) on PDE4B2 is 10 to 50 nM; at PDE4D2 it was under 10 nM.
The matching figures for `CC1CN(c2ccc3c(c2)OCC2CN(c4nc5c(c(NC6(CO)CCC6)n4)[S@+]([O-])CC5)CCN32)C1` (single isomer, unassigned) [Compound 81-2]: under 10 nM and under 10 nM.
As to `C#Cc1cnc2c(c1)OCC1CN(c3nc4c(c(NC5(CO)CCC5)n3)[S@+]([O-])CC4)CCN21` (single isomer, unassigned) [Compound 67-2], the IC50 on PDE4B2 lay within 10 to 50 nM; at PDE4D2 it was 50 to 100 nM; in test [1] it was 10 to 50 nM.
For `[O-][S@+]1CCc2nc(N3CCN4c5ccc(Cl)cc5OCC4C3)nc(NC3(CO)CCC3)c21` (single isomer, unassigned) [Compound 47-1], on PDE4B2, the IC50 was 10 to 50 nM.
For `C#Cc1ccc2c(c1)OCC1CN(c3nc4c(c(NC5(CO)CCC5)n3)[S@+]([O-])CC4)CCN21` (single isomer, unassigned) [Compound 48-1], the IC50 on PDE4B2 and at PDE4D2 was under 10 nM in each case.
Regarding `CN1CCN2c3ccc(-c4nc5c(c(NC6(CO)CCC6)n4)[S@+]([O-])CC5)cc3OCC2C1` (single isomer, unassigned) [Compound 75-1], the IC50 is under 10 nM at PDE4B2, 10 to 50 nM at PDE4D2 and under 10 nM in test [1]. Moreover, the “Max inhibition (%)” value in test [1] is recorded as 63.52%.
Turning to `CN1CCN2c3ccc(-c4nc5c(c(NC6(CO)CCC6)n4)[S@+]([O-])CC5)cc3OCC2C1` (single isomer, unassigned) [Compound 75-2], the IC50 on PDE4B2 lay in the range of 10 to 50 nM; on PDE4D2, 50 to 100 nM; in test [1], 10 to 50 nM. Further, in test [1], the “Max inhibition (%)” value came out at 72.44%.
For `[O-][S@+]1CCc2nc(N3CC4C=C(c5ncc6c(n5)CC6)CC4C3)nc(NC3(CO)CCC3)c21` (single isomer, unassigned) [Compound 77-2], the results for the concentration for half-maximal inhibition (IC50) (on PDE4B2; at PDE4D2; in test [1]) were 10 to 50 nM, 10 to 50 nM and under 10 nM, respectively. For the same compound, in test [1], the “Max inhibition (%)” value is listed as 73.99%.
With `[O-][S@+]1CCc2nc(N3CC4CC(C3)C4c3ccc(Cl)cc3)nc(NC3(CO)CCC3)c21` (some centres unmarked), the IC50 at PDE4B2 is 10 to 50 nM.
`CC(=O)N1CCN2c3ccc(-c4nc5c(c(NC6(CO)CCC6)n4)[S@+]([O-])CC5)cc3OCC2C1` (some centres unmarked): the IC50 at PDE4B2 lay in the range of 10 to 50 nM. Moreover, in test [1], the “Max inhibition (%)” value was 58.51% and the IC50 lay within 10 to 50 nM.
Consider `[O-][S@+]1CCc2nc(N3CCN4c5ncc(Cl)cc5OCC4C3)nc(NC3(CO)CCC3)c21` (single isomer, unassigned) [Compound 68-1], for which the IC50 is under 10 nM on PDE4B2, 10 to 50 nM at PDE4D2 and 10 to 50 nM in test [1].
On to `[O-][S@+]1CCc2nc(N3CCN4c5ccccc5OCC4C3)nc(NC3(CO)CCC3)c21` (single isomer, unassigned) [Compound 61-2], for which the IC50 at PDE4B2 and at PDE4D2 was 10 to 50 nM in each case.
In the case of `[O-][S@+]1CCc2nc(N3CC4C=C(c5ncc6c(n5)CC6)CC4C3)nc(NC3(CO)CCC3)c21` (single isomer, unassigned) [Compound 77-1], the IC50 (on PDE4B2; on PDE4D2; in test [1]) was under 10 nM each time. For the same compound, the “Max inhibition (%)” value in test [1] worked out at 75.70%.
As for `[O-][S@+]1CCc2nc(N3CCN4c5ncc(Cl)cc5OCC4C3)nc(NC3(CO)CCC3)c21` (single isomer, unassigned) [Compound 68-2], the half-inhibitory concentration (IC50) on PDE4B2 is under 10 nM; at PDE4D2, 10 to 50 nM; in test [1], 50 to 100 nM.
On to `[O-][S@+]1CCc2nc(N3CCN4c5ccccc5OCC4C3)nc(NC3(CO)CCC3)c21` (single isomer, unassigned) [Compound 61-1], for which the IC50 at PDE4B2 and on PDE4D2 was under 10 nM in each case.
For the compound `CC#Cc1cnc2c(c1)OCC1CN(c3nc4c(c(NC5(CO)CCC5)n3)[S@+]([O-])CC4)CCN21` (single isomer, unassigned) [Compound 80-2], the IC50 was under 10 nM on PDE4B2, 10 to 50 nM on PDE4D2 and 10 to 50 nM in test [1]. In addition, the “Max inhibition (%)” value in test [1] is reported as 63.03%.
